{
  "source": "ChEMBL document CHEMBL4411321",
  "about": "“Discovery of Potent, Selective, and Orally Bioavailable Estrogen-Related Receptor-γ Inverse Agonists To Restore the Sodium Iodide Symporter Function in Anaplastic Thyroid Cancer” (J Med Chem, 2019)",
  "key": {"[1]": {"target": "T1, Steroid hormone receptor ERR1 (Homo sapiens, UniProt P11474)", "T1 sequence (P11474 whole entry)": "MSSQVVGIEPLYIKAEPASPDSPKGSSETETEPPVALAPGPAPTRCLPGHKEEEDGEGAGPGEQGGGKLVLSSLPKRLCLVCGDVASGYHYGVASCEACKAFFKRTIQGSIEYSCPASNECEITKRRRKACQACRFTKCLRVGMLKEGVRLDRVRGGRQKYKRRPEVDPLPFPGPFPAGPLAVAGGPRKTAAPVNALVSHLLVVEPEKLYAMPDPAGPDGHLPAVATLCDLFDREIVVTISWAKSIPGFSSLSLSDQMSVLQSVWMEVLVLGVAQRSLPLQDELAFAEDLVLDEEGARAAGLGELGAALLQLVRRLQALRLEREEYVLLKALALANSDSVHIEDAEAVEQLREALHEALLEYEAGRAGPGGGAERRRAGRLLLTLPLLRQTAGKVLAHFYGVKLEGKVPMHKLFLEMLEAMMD"}, "[2]": {"target": "T2, Steroid hormone receptor ERR2 (Homo sapiens, UniProt O95718)", "T2 sequence (O95718 whole entry)": "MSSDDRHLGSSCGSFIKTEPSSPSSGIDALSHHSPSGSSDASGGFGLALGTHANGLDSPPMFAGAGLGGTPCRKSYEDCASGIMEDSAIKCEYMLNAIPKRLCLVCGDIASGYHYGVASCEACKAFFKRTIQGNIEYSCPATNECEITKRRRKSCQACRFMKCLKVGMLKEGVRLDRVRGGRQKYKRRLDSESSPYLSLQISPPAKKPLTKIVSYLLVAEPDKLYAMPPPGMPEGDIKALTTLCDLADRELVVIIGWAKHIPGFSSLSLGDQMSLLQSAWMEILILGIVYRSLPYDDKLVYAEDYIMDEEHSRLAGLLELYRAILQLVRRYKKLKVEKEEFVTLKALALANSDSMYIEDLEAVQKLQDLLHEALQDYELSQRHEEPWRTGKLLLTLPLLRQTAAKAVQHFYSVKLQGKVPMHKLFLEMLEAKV", "assay": "Binding affinity to ERRbeta (unknown origin) using fluorescein-conjugated coactivator PGC-1alpha incubated for 1 hr by TR-FRET assay"}},
  "data": [
    {"smiles": "OCCC/C(=C(\\c1ccc(Br)cc1)c1ccc(N2CCNCC2)cc1)c1ccccc1", "values": [
      {"measurement": "IC50", "setting": "[1]", "value": 8.65, "unit": "µM"},
      {"measurement": "IC50", "setting": "[2]", "value": 980, "unit": "nM"}
    ]}
  ]
}
